In brackets after ≈: the same amount, converted by molar mass.
Tested on: WT MG1655 E. coli
Type: cell-based
Conditions: 6-hr period, aerated EZRDM medium, 30°C, by OD, successive two-fold dilutions in 96 well plates

CC[C@H](C)[C@H](NC(=O)CN)C(=O)NCC(=O)N[C@@H](C)C(=O)N[C@H](C(=O)N[C@@H](CC(C)C)C(=O)N[C@@H](CCCCN)C(=O)N[C@H](C(=O)N[C@@H](CC(C)C)C(=O)N[C@H](C(=O)N[C@H](C(=O)NCC(=O)N[C@@H](CC(C)C)C(=O)N1CCC[C@H]1C(=O)N[C@@H](C)C(=O)N[C@@H](CC(C)C)C(=O)N[C@H](C(=O)N[C@@H](CO)C(=O)N[C@@H](Cc1c[nH]c2ccccc12)C(=O)N[C@H](C(=O)N[C@@H](CCCCN)C(=O)N[C@@H](CCCNC(=N)N)C(=O)N[C@@H](CCCCN)C(=O)N[C@@H](CCCNC(=N)N)C(=O)N[C@@H](CCC(N)=O)C(=O)N[C@@H](CCC(N)=O)C(N)=O)[C@@H](C)CC)[C@@H](C)CC)[C@@H](C)O)[C@@H](C)O)C(C)C)C(C)C [Melittin]
MIC (minimum inhibitory concentration): 5 µM (≈ 14.2 µg/mL)
